One test concerns Escherichia coli. To be noted: ATCC 25922.
The subject of a further test is Staphylococcus aureus. To be noted: SA-1.

For orientation: MIC means the lowest concentration found to suppress growth. A lower MIC goes with greater potency. Turning to GENTAMICIN, the MIC in the test with Escherichia coli and in the test with Staphylococcus aureus was 0.5 µg/mL in each case.

The record behind these values is ChEMBL document CHEMBL4265973, “Broad-spectrum antibacterial amphiphilic aminoglycosides: A new focus on the structure of the lipophilic groups extends the series of active dialkyl neamines” (Eur J Med Chem, 2018).
